Source: PubChem (Broad Institute)
Sampled rows, rich in hits. Any-hit rate of the full collection: about 1.3%.
AF4-AF9 inh – inhibitors of AF4 peptide binding to AF9, primary screen, biochemical, AlphaScreen, biotin-AF4 peptide, FLAG-AF9, single point | inhibition, % at 10 µM | 350,000 compounds, 0.47% hits | Protein AF-9 (Homo sapiens), P42568;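 active means every replicate reaching a set inhibition limit, whatever the replicate mean, cut at about 25% in these data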;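 further: 0% = plate neutral control median and 100% = total signal loss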
ERAP1 HTS inh – human ERAP1 aminopeptidase inhibitors, primary screen, biochemical, single point, plate reader. 340,000 compounds, 0.15% hits. AID 652197, 2013. inhibition, % at 10.7 µM. recombinant ERAP1, Leu-AMC fluorescence, 60 min;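 active means mean replicate inhibition of at least 30%, or all replicates individually reaching that 30% level; inactive means mean below 30% and not every replicate reaching it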;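 further: 0% = neutral control wells and 100% = L-leucinethiol positive control wells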
E-selectin induc – E-selectin induction in HUVECs, primary screen, imaging, HUVEC, immunofluorescence imaging, single point. P16581. normalized: neutral wells 0, TNF-alpha wells 100. AID 686992, 2013. 260,000 compounds, 0.37% hits. activation, % at 7.58 µM;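 active means mean E-selectin-positive cell signal at least 10% of the positive control, reached in at least 60% of replicates, without over 20% cell loss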
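Material: HUVEC primary endothelial cells; Amount: 3,000 cells per well; Dosing: single concentration; Medium: EGM-2 growth medium on 0.1% gelatin-coated wells; Read-out basis: percent E-selectin-positive cells; Signal: immunofluorescence imaging; Control set: TNF-alpha, DMSO.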
S100A4 inh HTS – inhibitors of S100A4-myosin IIA peptide binding, primary screen, biochemical, fluorescence polarization, TAMRA-MyoIIA peptide. AID 652163, 2013. inhibition, % at 10.7 µM. 360,000 compounds, 0.14% hits. Protein S100-A4 (Homo sapiens), P26447;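 active means mean inhibition of at least 70% across replicates, with every replicate also reaching that level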
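Material: S100A4 monomer protein | Medium: HEPES pH 7.2 with CaCl2, KCl, NaCl, DTT, Triton | Reagent: Labelled myosin peptide probe, 5 nM | Doses: One dose per compound | Times: 5 min incubation before reading | Benchmarks: Neutral control DMSO, positive control TFP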
ARNT TACC3 PPI – disruptors of ARNT/TACC3 protein interaction, primary screen, biochemical, AlphaScreen, single concentration. 390,000 compounds, 0.66% hits. AlphaScreen His-ARNT PAS-B/GST-TACC3 binding, luminescence; TACC3 fragment carries E629A point mutation. AID 623870, 2012. inhibition, % at 9.99 µM. Transforming acidic coiled-coil-containing protein 3 (Homo sapiens), Q9Y6A5;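 active means mean inhibition of replicates at least 50% and at least half of replicates each reaching 50%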;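 further: 0% = complete ARNT plus TACC3 wells and 100% = ARNT alone without TACC3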
Yeast UUG start – alters start codon recognition fidelity in yeast; S. cerevisiae UUG-firefly luciferase reporter, luminescence/redox ratio; activity score, % at 18.7 µM; actives 0.13% (n = 350,000);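 active means replicate mean at a twofold rise or more, about +100% in these data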;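 further: firefly luciferase made from a UUG start codon reports start codon fidelity; reporter light over untreated wells divided by growth signal over untreated wells; some hits fall short of that in this replicate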
* hit, by the source's call; nt = no result given.

The chains behind the UniProt entries cited, without tags or fusion partners.
Protein AF-9 (Homo sapiens), P42568, UniProt P42568, whole entry, looked up: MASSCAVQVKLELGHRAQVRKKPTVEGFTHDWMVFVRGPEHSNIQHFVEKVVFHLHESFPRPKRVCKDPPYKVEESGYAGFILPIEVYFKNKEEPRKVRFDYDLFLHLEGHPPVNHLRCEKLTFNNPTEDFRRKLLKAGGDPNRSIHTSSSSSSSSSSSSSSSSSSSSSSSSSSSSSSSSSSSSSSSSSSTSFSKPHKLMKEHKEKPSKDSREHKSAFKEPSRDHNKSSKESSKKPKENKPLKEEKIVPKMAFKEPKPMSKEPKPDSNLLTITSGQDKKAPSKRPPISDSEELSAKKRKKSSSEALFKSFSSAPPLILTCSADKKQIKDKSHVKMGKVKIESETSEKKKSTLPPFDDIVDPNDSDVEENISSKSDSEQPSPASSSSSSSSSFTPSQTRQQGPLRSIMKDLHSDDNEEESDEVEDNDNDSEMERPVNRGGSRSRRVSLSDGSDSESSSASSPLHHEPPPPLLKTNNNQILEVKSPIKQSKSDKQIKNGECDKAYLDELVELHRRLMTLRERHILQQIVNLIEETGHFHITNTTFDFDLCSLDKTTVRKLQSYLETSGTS

Value order: AF4-AF9 inh	ERAP1 HTS inh	E-selectin induc	S100A4 inh HTS	ARNT TACC3 PPI	Yeast UUG start
> CCOC(=O)/C(=C\C=C1/Sc2cc(OCC)c(OCC)cc2N1CC)C(C)=O
 : nt	nt	nt	nt	51*	43
> O=C(NC1Cc2ccccc2C1)[C@@H]1[C@@H](CO)[C@@H]2Cn3c(ccc(C4=CCCCC4)c3=O)[C@@H]2N1CC1CC1
 : 5	4	-1	-5	nt	nt
> C[C@@H]1CN([C@H](C)CO)C(=O)c2cc(NS(=O)(=O)c3ccc(Cl)cc3)ccc2O[C@@H]1CN(C)S(=O)(=O)c1cn(C)cn1
 : -4	-1	-7	-23	-7	12
> O=C(NC1CC1)C1=C[C@@H](C2CCCCC2)C[C@@H](OCCCCO)O1
 : -4	-1	0	40	-8	-6
> O=C(O)C1=C[C@@H](C2CCCC2)C[C@@H](OCCCCO)O1
 : -4	0	nt	10	61*	4
> CCCC(=O)N1CCC2(CC1)CN(C(=O)C1CC1)[C@H](CO)c1[nH]c3cc(OC)ccc3c12
 : -1	-1	0	-2	nt	nt
> Cc1ccc(N2CC(c3nc4ccccc4n3C)CC2=O)cc1C (stereo not drawn)
 : -4	1	0	5	0	-8
> Cc1cc(C)cc(N2CC(c3nc4ccccc4n3C)CC2=O)c1 (stereo not drawn)
 : -2	103*	nt	0	-3	-15
> CC(C)c1nnc(NC(=O)c2cnccn2)s1
 : nt	nt	nt	nt	50*	-13
> Cc1cc(=S)nc(-c2ccccn2)[nH]1
 : -9	10	nt	2	59*	nt
> COc1ccc(NC(=O)CCn2c(=S)[nH]c3ccccc3c2=O)cc1
 : -11	-4	nt	-4	-10	-27
> COc1ccc(NC(=O)CCCn2c(=S)[nH]c3ccccc3c2=O)cc1
 : 5	5	90*	3	-2	-14
> O=C(c1cccnc1)N1C[C@H]2[C@@H](c3ccccc31)[C@@H](CO)N2C(=O)C1CCCCC1
 : -1	-5	0	50	-6	21
> COCC#Cc1ccc2c(c1)O[C@H](CN(C)C(=O)Nc1ccccc1F)[C@H](C)CN([C@H](C)CO)S2(=O)=O
 : -7	5	0	-7	22	18
> O=c1c2ccccc2sn1-c1ccc(Cl)cc1Cl
 : -10	81*	-1	-3	nt	-42
> Cc1ccc(Nc2cc(C)nn2-c2nc(C)cc(C)n2)cc1
 : nt	nt	-2	nt	-1	-5
> Cc1ccc(Nc2cc(C)nn2-c2nc(C)cc(=O)[nH]2)cc1
 : nt	nt	nt	nt	63*	-71
> O=C(C[C@H]1CC[C@H]2[C@@H](COC[C@H](O)CN2Cc2cccc(C(F)(F)F)c2)O1)NCc1ccc(Cl)cc1
 : 4	1	0	-1	-4	nt
> O=C(C[C@H]1C[C@@H]2c3cc(NC(=O)CC4CC4)ccc3O[C@@H]2[C@@H](CO)O1)NCc1ccccn1
 : 3	1	0	1	1	-23
> S=C(Nc1ccc(Cl)cc1)c1nc2ccccc2[nH]1
 : nt	nt	nt	nt	4	-28
> Cc1ccccc1NC(=S)c1nc2ccccc2[nH]1
 : 27*	5	1	1	49*	-33
> Cc1ccc(-c2csc3nc4c5ccccc5c(NCCCN(C)C)nn4c(=O)c23)cc1
 : -2	4	nt	-5	67*	7
> Cc1ccc(-c2nc(NCCCN(C)C)c3ccccc3n2)cc1
 : 0	-1	0	-13	nt	-11
> COc1ccc(NC(=O)N(C)C[C@H]2Oc3ccc(NS(=O)(=O)c4ccc(F)cc4)cc3CC(=O)N([C@H](C)CO)C[C@@H]2C)cc1
 : 1	-3	0	-5	nt	nt
> Cc1ccccc1OCC(O)Cn1c(Br)nc2c1c(=O)n(C)c(=O)n2C (stereo not drawn)
 : 0	10	51*	1	-5	-1
> CN(C)C(=O)C[C@H]1CC[C@@H]2[C@H](COC[C@@H](O)CN2C(=O)c2ccncc2)O1
 : -1	-4	0	-3	-12	6
> CC(C)CNC(=O)c1cccc2c1-c1ccccc1C2=O
 : 42*	0	0	-2	-12	-12
> Nc1ccc(Br)c2cccnc12
 : 0	-3	2	3	49*	nt
> CC(C)NC(=O)Nc1ccc2c(c1)C(=O)N([C@H](C)CO)C[C@H](C)[C@@H](CN(C)Cc1ccc(Cl)c(Cl)c1)O2
 : -3	3	2	-18	-10	-18
> O=C(CSc1cccc2cccnc12)Nc1cc(C(=O)O)cc(C(=O)O)c1
 : 4	4	1	3	68*	-17

(list continues)
Value order: AF4-AF9 inh	ERAP1 HTS inh	E-selectin induc	S100A4 inh HTS	ARNT TACC3 PPI	Yeast UUG start
> CCCCOc1ccc(NC(=O)CSc2cccc3cccnc23)cc1
 : -3	0	nt	-4	13	-7
> Cc1ccc(C)c(NC(=O)CSc2cccc3cccnc23)c1
 : -5	-1	nt	1	-9	-14
> Cc1cccc(NC(=O)CSc2cccc3cccnc23)c1
 : 3	-2	nt	-1	57*	-13
> CO[C@H]1CN(C)C(=O)c2cc(NS(=O)(=O)c3cn(C)cn3)ccc2OC[C@@H](C)N(Cc2cccc(F)c2)C[C@H]1C
 : 1	0	0	-2	5	2
> Cc1cc2ccccc2n1CCNC(=O)c1ccc(Br)o1
 : 2	1	5	90*	1	6
> Cc1cc2ccccc2n1CCNC(=O)Cc1cccc2ccccc12
 : -1	-2	nt	73*	-4	-1
> CC(=O)NCCn1c(C)cc2ccccc21
 : 0	-1	0	24	-16	-2
> CCCNC(=O)N1CC2(C1)[C@H](c1ccccc1)[C@@H](CO)N2C(=O)c1ccncc1
 : -2	-1	0	1	nt	nt
> Nc1nc2nn(-c3ccccc3)nc2c(=O)[nH]1
 : -3	-2	0	-1	-1	-19
> Nc1nc2c(ncn2-c2ccccc2)c(=O)[nH]1
 : 0	-1	-1	4	46*	-7
> COc1cccc(-c2ccc3c(c2)[C@H]2[C@H](CCN2C(=O)C2CCCC2)[C@H](CO)N3)c1
 : 9	-2	0	-7	nt	nt
> CC1=NN(C(N)=S)C(=O)C1N=Nc1ccccc1O (stereo not drawn)
 : 0	3	1	8	76*	-4
> CC1=NN(C(N)=S)C(=O)C1N=Nc1c(C)n(C)n(-c2ccccc2)c1=O (stereo not drawn)
 : -2	nt	16	2	47*	-23
> COc1cccc(S(=O)(=O)N2C[C@@H](O)COC[C@H]3O[C@@H](CC(=O)Nc4ccccc4)CC[C@@H]32)c1
 : -4	-2	0	9	-3	nt

Profiles as entered above. Order of values: AF4-AF9 inh | ERAP1 HTS inh | E-selectin induc | S100A4 inh HTS | ARNT TACC3 PPI | Yeast UUG start
Listed for Cc1cc2ccccc2n1CCNC(=O)c1ccc(Br)o1 → 2 | 1 | 5 | 90* | 1 | 6
Listed for CC(C)CNC(=O)c1cccc2c1-c1ccccc1C2=O → 42* | 0 | 0 | -2 | -12 | -12
Listed for Cc1cc(=S)nc(-c2ccccn2)[nH]1 → -9 | 10 | nt | 2 | 59* | nt
Listed for CCCNC(=O)N1CC2(C1)[C@H](c1ccccc1)[C@@H](CO)N2C(=O)c1ccncc1 → -2 | -1 | 0 | 1 | nt | nt
Listed for O=C(c1cccnc1)N1C[C@H]2[C@@H](c3ccccc31)[C@@H](CO)N2C(=O)C1CCCCC1 → -1 | -5 | 0 | 50 | -6 | 21
